# Antibody variant affinities, Ab-91 heavy chain, assay 2

Target peptide (SARS-CoV-2 spike, HR2 region): PDVDLGDISGINAS

Parent scFv Ab-91: VL joined to VH by a (GGGGS)3 linker. Changes lie in the heavy chain CDRs alone.
VL: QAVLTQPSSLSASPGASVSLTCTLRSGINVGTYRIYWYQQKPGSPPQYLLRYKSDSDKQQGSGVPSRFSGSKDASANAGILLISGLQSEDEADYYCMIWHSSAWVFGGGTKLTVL
VH: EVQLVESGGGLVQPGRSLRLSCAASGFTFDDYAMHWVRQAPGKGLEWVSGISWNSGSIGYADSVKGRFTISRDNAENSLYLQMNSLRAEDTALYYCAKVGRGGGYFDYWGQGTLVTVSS

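The parent was found by panning a naive human phage display library on the peptide. AAYL51 was designed without a model: most single CDR substitutions and a random sample of double and triple ones. The scFvs were displayed on barcoded MATa yeast, the peptide on MATalpha yeast. After mating in shaken culture at 30 °C for 16 h, diploids were selected and their barcode pairs sequenced. Each replicate has its own calibration line, from reference interactions of the BCL2 family. Mating was done three times.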

Variants are written as CDR1, CDR2 and CDR3 of the heavy chain (limits as in the source). Parent: GFTFDDYAMH, GISWNSGSIGYADSVK, VGRGGGYFDY. This list gathers variants with a substitution at N54 (VH, numbered from residue 1). The read-out is the apparent dissociation constant on a log10 scale (nM): the lower, the stronger. A mean of the replicates is given; it leaves out those without a signal. Where no diploid with the target was found in that replicate, the entry reads "nd": below detection, most likely a poor binder, though not proof of it. In this assay the parent's reference entry averaged 1.86; its copy inside this library read 0.88. Background: pairings of library AAYL51 with three empty control strains gave a value in 21% of cases (median 4.54, 5th percentile 3.26). Values in that range, when seen in few replicates, are hard to tell from nonspecific mating.

* GFTFDDYAMH, PISWDSGSSGYADSVK, VGRGGGYFDY: 5.72, 3.53, 5.24 (mean 4.83)
* GFTFDDYAMV, GYSWESGSIGYADSVK, VGRGGGYFDY: nd, 6.47, nd
* GFTFDDYAVH, GISAKSGSIGYADSVK, VGRGGGYFDY: nd, nd, nd
* GFTFDDYAMH, GISWASGSIGYADSVK, NGRGQGYFDY: nd, 4.63, nd
* GFTFDDYAMH, GISWLSGSIGYADWVK, VGRGGGYEDY: 4.71, 4.37, 5.10 (mean 4.73)
* GFTFDDHAMH, GISWPSGSIGYADSVK, VGRGGGYFDY: nd, 5.04, 4.63 (mean 4.83)
* GFTFDDMWMH, GISWGSGSIGYADSVK, VGRGGGYFDY: 4.43, nd, nd
* GFTFDDYAMH, GISWKSGSIGYADSVS, VGRGGGYFDY: nd, nd, nd
* GFTFDDYAMH, GISWLSGSIGYAPSVK, VGRAGGYFDY: 4.42, nd, nd
* GFTYDDYAMH, EISWASGSIGYADSVK, VGRGGGYFDY: nd, nd, nd
* GFTTDDYAMH, GISCGSGSIGYADSVK, VGRGGGYFDY: nd, nd, nd
* GFTFDDIAMH, GICWASGSIGYADSVK, VGRGGGYFDY: nd, 5.47, nd
* GFTFDDYANH, GISWCSGSIGYADSVK, VGRGGGYFDS: nd, nd, nd
* GFTFDDYAMH, GISWYSASIGYADSVK, VGRGGGYSDY: nd, 5.58, nd
* GFTFDDYAMH, GISWWSGSIGYADSVK, VGRGGGYFDY: 5.16, nd, nd
* GFTFDDYAMH, GISWYSGSIGNADSVK, VIRGGGYFDY: 3.33, nd, nd
* GFTFDDYHMH, GISWVLGSIGYADSVK, VGRGGGYFDY: nd, 5.28, nd
* GFTFMDYAMH, GISWWSGRIGYADSVK, VGRGGGYFDY: 4.93, 4.70, 5.98 (mean 5.21)
* GFTFDDYAMH, GISHELGSIGYADSVK, VGRGGGYFDY: 4.40, 6.32, nd (mean 5.36)
* GFTFDDYAMH, GISWGSGSIFYADSVK, VGRGCGYFDY: 3.74, nd, nd
* LFTFDDYAMH, GISWFSGSIGYYDSVK, VGRGGGYFDY: 5.66, 4.52, nd (mean 5.09)
* GFTFTDYAMH, GISWASGSIGYADSVK, VGRGGGYFDY: 3.09, 2.98, 4.17 (mean 3.41)
* GFTFDDYAMH, GISWDSGSIGYADCVK, VGRGGGYFDF: 4.68, 5.08, 4.64 (mean 4.80)
* GFTFDDYKMH, GIGWCSGSIGYADSVK, VGRGGGYFDY: nd, nd, nd
* GETFDDYAMH, GISWVSGSIGYADSVK, VGRGGGYFDY: nd, nd, nd
* GFTFDDYAMH, GISWRSNHIGYADSVK, VGRGGGYFDY: 5.87, 5.20, nd (mean 5.54)
* GFTFDDYCMN, GISWASGSIGYADSVK, VGRGGGYFDY: nd, 3.21, nd
* GFTFDDYAMH, GISWMFGSIGYADSVK, VGRGGGWFDY: 4.58, 4.41, nd (mean 4.49)
* GFTFDDYAMH, GISWGSKSIGYADSVK, VGRGGGYFDY: 2.61, 2.03, 2.56 (mean 2.40)
* GFTFDDYAMH, GISWFVGSPGYADSVK, VGRGGGYFDY: 3.03, nd, nd
* GFTFDDYADH, CISWQSGSIGYADSVK, VGRGGGYFDY: nd, nd, nd
* GFTFDDYAMH, GISWMSGSIGYASSVK, VGRGGGYFRY: 6.11, nd, 4.69 (mean 5.40)
* GFTFDDMAMH, GISWASGSIAYADSVK, VGRGGGYFDY: 4.63, nd, nd
* GFTFDDYAMH, GIKWGSGSIGYADSVK, VGRGGGYFDQ: nd, 4.19, nd
* GFTFDDYAMH, GISWPSGSIGYAMSVK, VGCGGGYFDY: nd, nd, nd
* GFTFDDYAMH, HISWHSGSIGYADSVK, VGRGGKYFDY: nd, nd, nd
* GFTFDDYAMH, GISWMSTSIGYADSVK, VGRGGGRFDY: nd, 3.77, 2.49 (mean 3.13)
* GFTFDDYGMH, GISWFSGSIGYADSVK, DGRGGGYFDY: 5.34, nd, nd
* GFTFDDYAMH, GISWDSGSIGYSDSVK, VGRGGGFFDY: 0.63, 0.64, 0.12 (mean 0.46)
* GFTFDDYAMH, GFSWFSGSISYADSVK, VGRGGGYFDY: nd, nd, nd
* GFTFDYYAMH, GISWCSGSIGYADSVQ, VGRGGGYFDY: 3.15, 2.08, nd (mean 2.62)
* GPTFDDYAMH, GISWESGSLGYADSVK, VGRGGGYFDY: nd, nd, nd
* GFTFHDYAMH, GISWASGSIGYADSVK, VGRGGGYKDY: 3.85, 3.86, 4.80 (mean 4.17)
* GFTFDDYAMH, GISWTSGSIGYADSVK, VGRGGGDFDY: nd, nd, nd
* GFTFDDYAMH, GISQWSGSIGYHDSVK, VGRGGGYFDY: 2.76, nd, nd

5 of these entries, quoted again:

CDR-H1	CDR-H2	CDR-H3	log10 Kd (nM) by replicate	mean, log10 nM
GFTFTDYAMH	GISWASGSIGYADSVK	VGRGGGYFDY	3.09, 2.98, 4.17	3.41
GFTFDDIAMH	GICWASGSIGYADSVK	VGRGGGYFDY	nd, 5.47, nd	5.47
GFTFDDYGMH	GISWFSGSIGYADSVK	DGRGGGYFDY	5.34, nd, nd	5.34
GFTFDDYAMH	GISWMSTSIGYADSVK	VGRGGGRFDY	nd, 3.77, 2.49	3.13
GFTFDDYAMH	GISWPSGSIGYAMSVK	VGCGGGYFDY	nd, nd, nd	nd

Data: MIT Lincoln Laboratory AlphaSeq set, Engelhart et al. 2022, doi:10.1038/s41597-022-01779-4, as distributed in FLAb.